We go through 1 compound from PubChem BioAssay AID1259375 (The Scripps Research Institute Molecular Screening Center, 2018).

Chains of the proteins cited; added tags and fusions are not shown.
UniProt O75030, whole entry: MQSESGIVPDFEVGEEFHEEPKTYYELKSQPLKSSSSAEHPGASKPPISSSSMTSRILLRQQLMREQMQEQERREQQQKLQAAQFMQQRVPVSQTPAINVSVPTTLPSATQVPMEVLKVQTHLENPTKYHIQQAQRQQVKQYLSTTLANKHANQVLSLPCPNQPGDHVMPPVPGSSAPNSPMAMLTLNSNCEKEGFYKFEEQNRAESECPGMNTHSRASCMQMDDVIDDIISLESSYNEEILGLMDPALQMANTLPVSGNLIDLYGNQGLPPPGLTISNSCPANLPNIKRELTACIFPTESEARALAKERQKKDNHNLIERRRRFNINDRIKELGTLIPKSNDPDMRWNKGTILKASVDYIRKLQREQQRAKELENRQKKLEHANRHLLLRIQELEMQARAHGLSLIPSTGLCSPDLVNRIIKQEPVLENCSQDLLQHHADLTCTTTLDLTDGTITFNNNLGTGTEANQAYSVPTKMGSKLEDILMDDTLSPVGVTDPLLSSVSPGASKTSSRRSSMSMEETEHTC

One may read the IC50 as the concentration at which inhibition is half-maximal.

This experiment deals with Microphthalmia-associated transcription factor (Homo sapiens) (UniProt O75030). The experiment in a line: MITF inhibitors by FRET titration, dose response, biochemical, high throughput (AID 1259375).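 Further: FRET between CFP-tagged and YFP-tagged MITF protein partners.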 Conditions: FRET biochemical assay, MITF inhibition.

Structures are written as SMILES. The source made the active and inactive calls. How the calls were made is not given here. Where only a bound is given, the exact number is not on record here.

As to `O=[N+]([O-])c1cc2[nH]c3cc([N+](=O)[O-])c([N+](=O)[O-])cc3c2cc1[N+](=O)[O-]`, the IC50 is inactive: > 6.48 µM.
